The target of this experiment is Coagulation factor XI (Homo sapiens, UniProt P03951).

Chains of the proteins cited; added tags and fusions are not shown. Residues count along the entry.
UniProt P03951, 19-387 limits assumed: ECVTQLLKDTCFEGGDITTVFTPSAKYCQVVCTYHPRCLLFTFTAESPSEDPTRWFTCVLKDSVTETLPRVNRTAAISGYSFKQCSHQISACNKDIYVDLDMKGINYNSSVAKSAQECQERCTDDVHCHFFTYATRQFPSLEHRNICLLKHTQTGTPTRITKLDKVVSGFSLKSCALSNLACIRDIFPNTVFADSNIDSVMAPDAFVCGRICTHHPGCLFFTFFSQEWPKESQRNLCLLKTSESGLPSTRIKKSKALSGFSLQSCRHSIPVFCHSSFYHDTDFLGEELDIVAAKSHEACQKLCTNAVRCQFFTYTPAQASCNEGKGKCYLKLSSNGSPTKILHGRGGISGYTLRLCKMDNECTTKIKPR
UniProt P03951, 388-625 limits assumed: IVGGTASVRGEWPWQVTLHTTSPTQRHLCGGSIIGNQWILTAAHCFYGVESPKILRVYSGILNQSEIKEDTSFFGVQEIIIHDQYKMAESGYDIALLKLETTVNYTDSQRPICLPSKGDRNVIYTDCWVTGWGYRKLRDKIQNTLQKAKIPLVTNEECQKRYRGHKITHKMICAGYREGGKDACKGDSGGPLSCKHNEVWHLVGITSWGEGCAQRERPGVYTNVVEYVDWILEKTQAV

We go through one compound from BindingDB's records for patent US9809545 (Merck Sharp & Dohme Corp, 2017).

The Ki is the dissociation constant of the complex between target and ligand, obtained from inhibition or displacement.

For the compound `O=c1cc(-c2cc(Cl)ccc2-n2cnnn2)ccn1[C@@H](Cc1ccc(F)cc1)c1nnc(-c2ccc(F)cc2)o1` [US9809545, 6h], the Ki stood at 240 nM.
